## scFv variants of Ab-14 (light chain) against a SARS-CoV-2 spike peptide

The measurements come from Li et al. 2023 (doi:10.1038/s41467-023-39022-2) through the FLAb antibody collection.

The target is the same throughout: PDVDLGDISGINAS, from the HR2 region of SARS-CoV-2 spike.

Each scFv is VH, a 15-residue (Gly4Ser)3 linker, VL, as in the parent Ab-14, and differs from it in the CDRs of the light chain only.
VH: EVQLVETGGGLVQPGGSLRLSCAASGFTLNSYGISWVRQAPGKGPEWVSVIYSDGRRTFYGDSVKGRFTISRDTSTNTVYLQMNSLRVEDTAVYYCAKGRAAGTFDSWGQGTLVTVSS
VL: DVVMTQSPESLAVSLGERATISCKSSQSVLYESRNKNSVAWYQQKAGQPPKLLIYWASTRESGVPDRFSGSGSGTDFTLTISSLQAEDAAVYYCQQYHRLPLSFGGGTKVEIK

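The starting antibody came from a phage panning campaign against this peptide. The variants were designed computationally from a first round of random CDR variants and then made and measured. Group labels follow the data file (Ctrl: baseline library sampled from a position-specific scoring matrix, with some repeated check sequences; En: ensemble of fine-tuned language models; GP: Gaussian process model; HC: hill climbing; Gen: genetic algorithm; Gibbs: Gibbs sampling; a sequence that several methods proposed may carry one label only). The scFvs were displayed on barcoded MATa yeast, the peptide on MATalpha yeast. Mating (16 h, 30 °C) was followed by selection of diploids and sequencing of their barcodes. A regression on co-assayed BCL2-family reference pairs converts the normalised counts of each replicate to an apparent Kd. The assay was run in six technical replicates.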

Each variant is given by its three light chain CDRs, as the data file delimits them; those of the parent are KSSQSVLYESRNKNSVA, WASTRES, QQYHRLPLS. Scale: log10 of Kd in nM, estimated from mating counts; low values are strong binders. "ND" marks a missing value. The strain was present, yet no cells mated with the target were sequenced in that replicate, which points to weak or no binding. The parent sequence was in this pool as ten entries: three were never detected, three once, and four in most replicates, with averages from 0.34 to 2.37. Nonspecific signal, from three strains lacking the peptide, appeared in 4% of pairings of all light chain designs, centred on 2.64 (5% of these signals below 1.59); values are not corrected for it. Also given: how often the same scFv was detected with the empty control strains, with their mean in brackets. The authors averaged sequences with at least three values out of six and counted those with two or fewer as poor binders. The range of this assay differs from that of the first round, and the authors advise against merging the two.

CDR-L1 | CDR-L2 | CDR-L3 | group | log10 Kd (nM) by replicate | empty controls
MISQVMNTLTREGNNVA | DLQERER | QQYFRLPLS | En_Gen | 1.65 / 1.83 / 2.30 / 3.53 / 2.29 / 1.68 | 0 of 18
KISQSVLYESRNKNSLA | WASTRES | QQYHRLPLS | Ctrl | 1.17 / 1.43 / 0.96 / 1.13 / 1.33 / 0.85 | 0 of 18
KVAQGIFDGKRNSHSIA | EVSELCD | QQYSRLPLE | En_Gibbs | 0.45 / 0.31 / 0.15 / 0.05 / 0.24 / 0.30 | 2 of 18 (2.65)
KVSQSVLYESRNKNSVA | WASMRES | QQYHRLPLS | Ctrl | 1.14 / 0.93 / 1.26 / 1.03 / 0.80 / 1.29 | 1 of 18 (2.41)
KLSQVTHSESRSKNSIA | EMVTREV | QQYDRLPLS | En_HC | 0.71 / 0.75 / 0.61 / 0.66 / 0.45 / 1.23 | 1 of 18 (2.21)
KLVQSEGYESRNKNNVA | AASQRES | QQYHRLPLS | GP_Gibbs | 0.39 / 0.55 / 0.09 / 0.09 / 0.01 / 0.45 | 1 of 18 (2.99)
KLSQSVLYEERNKNSVA | EASTRES | QQYHRLPLS | GP_Gen | -0.14 / -0.27 / -0.40 / -0.42 / -0.41 / -0.15 | 1 of 18 (2.38)
KLEQSPNYESRNKNSVA | NASTRES | QQYHRLPLS | GP_HC | -0.13 / -0.17 / -0.19 / -0.27 / -0.17 / -0.07 | 1 of 18 (2.54)
KVVQSVNGLQRAKNSVA | QASTRES | QQYHRLPLS | GP_Gibbs | 0.61 / 0.63 / 0.38 / 0.46 / 0.49 / 0.71 | 2 of 18 (2.81)
KLKQDPVLKTNIGNNVA | EHTEVFQ | QQYAHLPLQ | En_Gibbs | 2.54 / 2.63 / ND / 2.27 / 2.54 / 3.21 | 1 of 18 (2.37)
TISQITSLFSQTINNVA | EVSTREQ | QQYDRLPLM | En_Gen | 1.41 / 0.74 / 0.70 / 0.52 / 1.21 / 0.70 | 3 of 18 (3.59)
KYSQSVLYESRYKNSVA | WASKRES | QIYHRLPKS | Ctrl | ND / ND / ND / ND / ND / ND | 0 of 18
KVSQSQLYESRNSNSVA | DASNRES | QQYHRLPLS | GP_Gibbs | 0.52 / 0.30 / 0.40 / 0.24 / 0.31 / 0.57 | 1 of 18 (3.26)
KLSQSEEYESRNKNSVA | EASTRES | QQYHRLPLS | GP_Gen | 1.48 / 0.87 / 0.80 / 0.91 / 2.47 / 1.45 | 1 of 18 (2.32)
MVTQMAMTGMKNKRSVA | NAEMREN | QQYHRLPLI | En_Gen | 0.99 / 0.40 / 0.00 / 0.31 / 0.17 / 0.52 | 1 of 18 (1.65)
KLSSSFLYGDRMKNSVA | QASQRES | QQYHRLPLS | GP_Gibbs | 0.39 / 0.37 / 0.65 / 0.34 / 0.63 / 0.26 | 0 of 18

The remaining entries, values ahead:

log10 Kd (nM) by replicate | empty controls | CDR-L1 | CDR-L2 | CDR-L3 | group
0.38 / 0.05 / 0.22 / 0.04 / 0.18 / 0.33 | 3 of 18 (2.58) | KLDSAEQHGTMQNSAMA | SASVSTQ | QQYSRLPLS | En_Gibbs
0.11 / -0.02 / -0.35 / -0.16 / -0.05 / -0.05 | 0 of 18 | KFSQKVLYEHRNKNSVA | NASTRES | QQYHRLPLS | GP_HC
0.66 / 0.60 / 0.81 / 1.44 / 1.04 / 1.13 | 0 of 18 | TIQQMMSLFSQTINNVA | EVSTREN | QQYDRLPLA | En_Gen
0.86 / 0.91 / 0.74 / 0.60 / 0.71 / 0.72 | 4 of 18 (2.97) | KISQMSTIESIAHNSVA | QTSTRES | QQYDRLPLS | En_HC
0.63 / 0.73 / 0.62 / 0.65 / 0.44 / 0.74 | 0 of 18 | KSSQSVLYESRQKDSVA | EASTRES | QQYHRLPLF | Ctrl
ND / 2.06 / ND / 1.87 / ND / 2.22 | 0 of 18 | TLSQSMDMTSRNVNSVA | DLNTRGN | QQYHRLPLS | En_HC
ND / ND / ND / ND / 2.07 / ND | 1 of 18 (1.45) | QITNQTAGIMNGIDSIA | EETNLTD | QQYGHLPLS | En_Gibbs
-0.01 / 0.57 / 0.13 / -0.04 / 0.04 / 0.20 | 0 of 18 | KLEQFVEYESRNKNSVA | HASTRLS | QQYHRLPLS | GP_Gibbs
0.62 / 1.04 / 0.08 / 0.56 / 0.52 / 0.62 | 1 of 18 (3.48) | SLMQVTGYESNNKNSIA | DLRTRES | QQYHRLPLS | En_HC
0.61 / 0.57 / 0.25 / 0.42 / 0.33 / 0.59 | 0 of 18 | KSSQSVLAESRNKNSVA | GASTRES | QQYHRLPLS | Ctrl
0.27 / 0.50 / 0.41 / -0.10 / 0.22 / 0.43 | 0 of 18 | KLTMITGLEKVSKNNVA | EMETREK | QQYNRLPLS | En_Gen
-0.21 / -0.16 / -0.14 / -0.31 / -0.22 / 0.09 | 2 of 18 (2.27) | KFEGSEGYESRNKNSVA | EASHRMS | QQYHRLPLS | GP_Gibbs
ND / ND / ND / ND / ND / ND | 0 of 18 | KLQQESNNMNDIQNSVA | DESMLET | QHYWRLPLT | En_Gibbs
0.22 / 0.88 / 0.52 / 0.40 / 0.63 / 0.43 | 0 of 18 | KSRQSVLYESENKNSVA | KASTRES | QDYHRLPLS | Ctrl
1.26 / 1.51 / ND / 2.34 / 1.93 / 2.80 | 1 of 18 (2.10) | KSSQSVLMSSRNKNSVA | WASTRES | QQYHRLPLS | Ctrl
ND / ND / 2.57 / ND / ND / ND | 1 of 18 (3.29) | HFSQVTMYGSWNRNSVA | QTSTREE | QQYDRLPLS | En_HC
0.25 / 0.15 / 0.19 / 0.21 / 0.80 / 1.23 | 1 of 18 (1.43) | KSSPSYLYEDRAFNSVA | HASTRES | QQYHRLPLS | GP_Gibbs

Top 4 of the variants detected in all replicates, tightest first:

CDR-L1 | CDR-L2 | CDR-L3 | group | log10 Kd (nM) by replicate | empty controls
KLSQSVLYEERNKNSVA | EASTRES | QQYHRLPLS | GP_Gen | -0.14 / -0.27 / -0.40 / -0.42 / -0.41 / -0.15 | 1 of 18 (2.38)
KLEQSPNYESRNKNSVA | NASTRES | QQYHRLPLS | GP_HC | -0.13 / -0.17 / -0.19 / -0.27 / -0.17 / -0.07 | 1 of 18 (2.54)
KFEGSEGYESRNKNSVA | EASHRMS | QQYHRLPLS | GP_Gibbs | -0.21 / -0.16 / -0.14 / -0.31 / -0.22 / 0.09 | 2 of 18 (2.27)
KFSQKVLYEHRNKNSVA | NASTRES | QQYHRLPLS | GP_HC | 0.11 / -0.02 / -0.35 / -0.16 / -0.05 / -0.05 | 0 of 18